{"source": "ChEMBL document CHEMBL1142045", "about": "“Carbonic anhydrase inhibitors. Interaction of isozymes I, II, IV, V, and IX with organic phosphates and phosphonates” (Bioorg Med Chem Lett, 2005)", "biological_target": "Carbonic anhydrase 2 (Homo sapiens, UniProt P00918)", "assay": "Binding affinity towards human cytosolic carbonic anhydrase II"}
{"molecule": "CP(=O)(O)O", "values": [{"measurement": "Ki", "result": 98, "unit": "nM"}]}
